Reference: patent publication US20170239237A1, “PYRROLOQUINOLINE DERIVATIVES AS 5-HT6 ANTAGONISTS, PREPARATION METHOD AND USE THEREOF” (Uniwersytet Jagiellonski, priority 2013, published 2017)

Chains of the proteins cited; added tags and fusions are not shown. Lines headed by an entry give the natural chain unless they say otherwise; changes in a name come on top. Residues count along the entry.
UniProt P35462, whole entry: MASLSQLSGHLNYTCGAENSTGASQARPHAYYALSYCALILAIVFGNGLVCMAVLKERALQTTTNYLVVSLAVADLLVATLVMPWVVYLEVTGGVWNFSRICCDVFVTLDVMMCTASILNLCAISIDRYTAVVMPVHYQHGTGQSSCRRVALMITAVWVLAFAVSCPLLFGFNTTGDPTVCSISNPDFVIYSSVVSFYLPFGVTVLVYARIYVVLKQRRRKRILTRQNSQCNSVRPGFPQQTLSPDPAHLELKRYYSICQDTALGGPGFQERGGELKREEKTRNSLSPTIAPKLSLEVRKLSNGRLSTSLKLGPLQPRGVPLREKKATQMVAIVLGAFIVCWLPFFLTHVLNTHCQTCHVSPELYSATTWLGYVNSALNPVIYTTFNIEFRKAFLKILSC
UniProt P11229: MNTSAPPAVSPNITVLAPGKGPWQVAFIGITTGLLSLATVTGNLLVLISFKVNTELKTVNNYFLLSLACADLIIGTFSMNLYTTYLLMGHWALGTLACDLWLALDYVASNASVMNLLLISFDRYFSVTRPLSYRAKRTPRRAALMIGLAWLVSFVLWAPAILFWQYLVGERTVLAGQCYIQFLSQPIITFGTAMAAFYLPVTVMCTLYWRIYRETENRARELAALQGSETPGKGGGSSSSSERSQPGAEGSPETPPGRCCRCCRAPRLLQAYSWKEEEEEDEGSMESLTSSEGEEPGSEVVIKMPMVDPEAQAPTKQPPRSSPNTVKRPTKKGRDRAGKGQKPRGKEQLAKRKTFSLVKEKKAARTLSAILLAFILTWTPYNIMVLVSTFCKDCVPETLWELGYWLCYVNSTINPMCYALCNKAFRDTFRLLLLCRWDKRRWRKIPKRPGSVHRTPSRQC
UniProt P28335, 33-458: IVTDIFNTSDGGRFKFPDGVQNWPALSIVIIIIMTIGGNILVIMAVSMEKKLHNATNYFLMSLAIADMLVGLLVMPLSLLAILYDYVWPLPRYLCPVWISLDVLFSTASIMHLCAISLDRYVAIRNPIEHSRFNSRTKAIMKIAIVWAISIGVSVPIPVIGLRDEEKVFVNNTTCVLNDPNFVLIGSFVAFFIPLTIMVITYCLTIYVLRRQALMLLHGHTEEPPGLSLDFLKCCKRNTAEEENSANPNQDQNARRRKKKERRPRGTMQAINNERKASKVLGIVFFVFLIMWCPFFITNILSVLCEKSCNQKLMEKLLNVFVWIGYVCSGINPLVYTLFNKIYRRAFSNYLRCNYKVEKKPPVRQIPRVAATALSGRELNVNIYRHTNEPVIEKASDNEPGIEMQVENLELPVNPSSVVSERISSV
UniProt P34969, 1-432 limits assumed: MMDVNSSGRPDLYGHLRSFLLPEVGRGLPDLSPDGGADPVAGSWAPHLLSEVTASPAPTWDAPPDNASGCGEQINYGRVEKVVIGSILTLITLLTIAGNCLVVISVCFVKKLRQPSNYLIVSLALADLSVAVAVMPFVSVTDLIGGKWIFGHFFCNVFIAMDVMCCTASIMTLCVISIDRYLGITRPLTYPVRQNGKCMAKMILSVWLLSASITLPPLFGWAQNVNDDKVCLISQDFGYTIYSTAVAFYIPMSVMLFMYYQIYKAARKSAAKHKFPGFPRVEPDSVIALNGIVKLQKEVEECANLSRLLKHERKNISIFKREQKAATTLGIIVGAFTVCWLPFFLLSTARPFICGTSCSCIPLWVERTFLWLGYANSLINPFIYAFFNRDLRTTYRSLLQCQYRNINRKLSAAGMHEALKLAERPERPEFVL
UniProt P35367, whole entry: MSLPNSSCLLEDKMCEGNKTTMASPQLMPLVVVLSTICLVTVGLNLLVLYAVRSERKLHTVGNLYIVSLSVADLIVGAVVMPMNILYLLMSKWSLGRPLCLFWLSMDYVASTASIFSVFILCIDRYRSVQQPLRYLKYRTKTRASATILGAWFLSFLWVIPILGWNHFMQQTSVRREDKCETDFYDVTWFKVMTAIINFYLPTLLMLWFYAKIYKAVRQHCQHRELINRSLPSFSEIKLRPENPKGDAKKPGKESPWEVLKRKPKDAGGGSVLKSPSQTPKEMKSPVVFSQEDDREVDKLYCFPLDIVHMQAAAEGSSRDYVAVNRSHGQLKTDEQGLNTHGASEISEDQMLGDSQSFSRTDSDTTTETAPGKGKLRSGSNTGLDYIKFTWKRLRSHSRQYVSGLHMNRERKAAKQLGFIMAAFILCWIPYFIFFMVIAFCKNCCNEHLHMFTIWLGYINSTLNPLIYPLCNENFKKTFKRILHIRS
UniProt P50406, whole entry: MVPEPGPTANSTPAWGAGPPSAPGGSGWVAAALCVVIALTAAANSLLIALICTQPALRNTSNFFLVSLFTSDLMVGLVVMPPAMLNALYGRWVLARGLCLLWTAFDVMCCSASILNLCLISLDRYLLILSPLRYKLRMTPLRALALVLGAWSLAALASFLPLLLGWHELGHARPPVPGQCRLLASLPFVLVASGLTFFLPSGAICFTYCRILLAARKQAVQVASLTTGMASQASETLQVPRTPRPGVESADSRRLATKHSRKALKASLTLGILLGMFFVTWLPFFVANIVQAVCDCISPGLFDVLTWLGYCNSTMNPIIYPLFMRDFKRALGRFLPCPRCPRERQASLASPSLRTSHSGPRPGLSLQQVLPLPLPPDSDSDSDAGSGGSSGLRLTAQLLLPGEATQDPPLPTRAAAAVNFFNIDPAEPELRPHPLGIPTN

Legend:
D3 receptors = D3 receptors (Homo sapiens, UniProt P35462); assay: biochemical; conditions: read-out: % inhibition of control binding at 10^−6M, D3
M1 receptors = M1 receptors (Homo sapiens, UniProt P11229); assay: biochemical; conditions: read-out: % inhibition of control binding at 10^−6M, M1
5-HT2C receptors = 5-HT2C receptors (Homo sapiens, UniProt P28335); assay: biochemical; conditions: read-out: % inhibition of control binding at 10^−6M, 5-HT2C
5-HT7 receptor = 5-HT7 receptor (Homo sapiens, UniProt P34969); assay: Radioligand binding, 5-HT7 ([3H]-5-CT displacement)
H1 receptors = H1 receptors (Homo sapiens, UniProt P35367); assay: biochemical; conditions: read-out: % inhibition of control binding at 10^−6M, H1
5-HT6 receptor = 5-HT6 receptor (Homo sapiens, UniProt P50406); assay: CHO-human-5HT6-Aequorin functional assay (ago-/antagonism); conditions: test concentration not given; for % inhibition of control agonist response: agonist effect, CHO-human-5HT6-Aequorin cells; for % inhibition of control antagonist response: antagonist effect vs 10^-6 M α-methylserotonin induced luminescence

SMILES | inhibition at 1 µM (D3 receptors) [%] | inhibition at 1 µM (M1 receptors) [%] | inhibition at 1 µM (5-HT2C receptors) [%] | Ki (5-HT7 receptor) [nM] | inhibition at 1 µM (H1 receptors) [%] | % inhibition of control agonist response (5-HT6 receptor) [%] | % inhibition of control antagonist response (5-HT6 receptor) [%]
O=S(=O)(c1cccc(F)c1)n1ccc2c(N3CCNCC3)nc3ccccc3c21 [Compound 30, 1-((3-fluorophenyl)sulfonyl)-4-(piperazin-1-yl)-1H-pyrrolo[3,2-c]quinoline] | 57 | 15 | 11 | 2800 | 41 | – | –
O=S(=O)(c1cccc(Cl)c1)n1ccc2c(N[C@H]3CCNC3)nc3ccccc3c21 [Compound 6, (S)-1-((3-chlorophenyl)sulfonyl)-N-(pyrrolidin-3-yl)-1H-pyrrolo[3,2-c]quinolin-4-amine] | – | – | – | – | – | 13.6 | 92.5
O=S(=O)(c1cccc(Cl)c1)n1ccc2c(N[C@@H]3CCNC3)nc3ccccc3c21 [Compound 7, (R)-1-((3-chlorophenyl)sulfonyl)-N-(pyrrolidin-3-yl)-1H-pyrrolo[3,2-c]quinolin-4-amine] | – | – | – | – | – | 0.8 | 85.9
O=S(=O)(c1cccc(Cl)c1)n1ccc2c(NC3CCNC3)nc3ccccc3c21 (centres unmarked) [Compound 5, 1-((3-chlorophenyl)sulfonyl)-N-(pyrrolidin-3-yl)-1H-pyrrolo[3,2-c]quinolin-4-amine] | – | – | – | – | – | −2.0 | 93.7
